Literature values, collected in patent publication US20240335532A1, “NANOPARTICULATE FORMULATION” (NewImmune II, LLC, priority 2021, published 2024).

Tested on: ovalbumin
Conditions: topical, subcutaneous ovalbumin immunisation

## CC(C)Cn1cnc2c(N)nc3ccccc3c21 [imiquimod, 1-(2-methylpropyl)imidazo[4,5-c]quinolin-4-amine]
  antibody and cellular responses to immunisation: enhances both antibody responses and cellular responses
